# Patent US8871749B2, “Bone-transplant or bone-filling composition comprising a dihydroxybenzoic acid derivative” (Cellsafe Co., Ltd., priority 2010, dated 2014)
# How the values were obtained:
# MC3T3-E1 cells [1] = test: Alkaline phosphatase (ALP) activity of osteoblasts; type: cell-based; details: positive control BMP2 100 ng/ml, 7 days, relative to negative control (100)
# Description: After removing the medium, α-MEM supplemented with β-glycerophosphate and ascorbic acid were added thereto as a differentiation-inducing agent for osteoblasts. Each compound of Example 1 was added to the culture medium in the final concentration of 5 μg/ml. The plate containing the cells was cultured for 7 days. 100 μl of a cell lysis buffer (Sigma, Catalog number: MCL1) was added to the cells, which were then incubated at 37° C. for 30 minutes. The resulting mixture (50 μl) was reacted with p-nitrophenyl phosphate as a substrate in a 0.1N glycine-NaOH buffer (pH 9.8), at 37° C. for 30 minutes. Each amount of p-nitrophenol released from the substrate was quantified by measuring an absorbance at 405 nm using an ELISA reader (Bio-Tek instrument). A positive control was treated with BMP2 in the concentration of 100 ng/ml. The alkaline phosphatase activities were calculated by obtaining relative absorbance differences through comparing with a negative control (no treatment).
# MC3T3-E1 cells [2] = test: In-vitro bone nodules of osteoblasts (calcium accumulation); type: cell-based; details: positive control BMP2 100 ng/ml, 27 days, relative to negative control (100)
# Description: MC3T3-E1 cells (RIKEN Cell Bank, Japan) (2×10^3 cells per well) as an osteoblast cell line were placed on each well of a 24-well plate and then cultured for 24 hours. The medium was changed with α-MEM supplemented with β-glycerophosphate and ascorbic acid as a differentiation-inducing agent for osteoblasts. Each compound of Example 1 was added to the culture medium in the final concentration of 5 μg/ml. The plate containing the cells was cultured for 27 days while changing the medium every three days or every four days. A positive control was treated with BMP2 in the concentration of 100 ng/ml. No treatment was made to the negative control. In order to quantify the amount of calcium accumulated in the cells, the cells were washed with a biological saline, and then calcium (Ca) was extracted with a 0.5N HCl solution for 6 hours on an agitator. The extracted solution (100 μl) was reacted with a Calcium Reagent (Sigma, USA) at room temperature for 5 minutes. […] The amount of calcium accumulated in the cells was calculated by obtaining relative absorbance differences through comparing with a negative control (no treatment).
# [3] = system: mandiblar molars transplanted into the kidney of female mouse (C57BL/6); test: Alveolar bone formation activity, compound-soaked collagen bead in mandiblar molar transplanted into mouse kidney; type: in vivo; details: collagen bead dipped in 1 mg/ml solution (1-2 μg compound), after 3 weeks, stained area vs negative control (100%)
# Description: Each compound of Example 1 was dissolved in a sterile biological saline to obtain a solution having a concentration of 1 mg/ml. Collagen bead (diameter: 1×2 mm, Gibco) used as a bone-grafting material was dipped into each solution at 37° C. for 45 minutes. Each resulting wet bead includes about 1-2 μl of the solution, and therefore 1-2 μg of each compound. Mandiblar molars before tooth-root formation were isolated from mice. The wet bead was inserted in the center of dental pulp of each isolated mandiblar molar, using tweezers. The resulting mandiblar molars were transplanted into the kidney of female mouse (C57BL/6). After 3 weeks, the growing molar teeth were fixed with a formalin solution and then stained with a Morse's solution. The stained sites were visualized under a microscope (Olympus IX71) and then the area was measured with an imageWarp software (London, England). The effects of the compounds on alveolar bone formation were evaluated by comparing with the negative control (100%).
substance,measurement,setting,value
"BMP2: bone morphogenic protein used as positive control; approved fracture-treating agent, bone-grafting material and bone-filler",Alkaline phosphatase activity of osteoblasts (%),MC3T3-E1 cells [1],150%
same,Calcium accumulation (%),MC3T3-E1 cells [2],160%
same,Alveolar bone formation (%),[3],120%
